Tested on: pancreatin (Panzytrat 40,000)
Assay: Cleavage experiments with pancreatin
Details: aqueous, 50° C.
Procedure: Both media are from the company Biorelevant®, Ltd. in Great Britain. In addition, in some experiments porcine pancreas is added (Panzytrat® 40,000, Fa. Allergan).
The pancreatin is used in the form of the commercially available product Panzytrat® 40,000 from the Allergan company. The whole mixture is stirred on a hot plate at 50° C.; the course of the reaction is determined and monitored by continuously recording the acid number over time.

Substance: 3-BHB-tetra-diglycerol ester
- cleavage by pancreatin to the free 3-hydroxybutyric acid: cleaved by pancreatin to the free 3-hydroxybutyric acid
